Experimental findings from patent publication US5494909A, “Substituted oxazinoisoquinoline derivatives, pharmaceutical compositions containing them and process for preparing same” (priority 1991, dated 1996) are described below.

For this assay, the system named is Veratrine-stimulated Ca uptake, synaptosomes prepared from rat brain. The format is biochemical, rat (Wistar). To be noted: veratrine 20 μmoles/l, pH 7.4, 37° C., 20 seconds, read-out: Inhibition of Veratrine-stimulated Ca uptake IC50.

Structures are written as SMILES.

For the molecule `COCCOC(=O)C1=C(C)NC(C)=C(C(=O)OC(C)C)C1c1cccc([N+](=O)[O-])c1` (stereo not shown) [nimodipine, isopropyl 2methoxyethyl 1,4dihydro-2,6-dimethyl-4-(mnitrophenyl)-3,5-pyridinedicarboxylate], the IC50 is 6.7 µM.
